The source of these data is publication PMC8712300 (European Journal of Nuclear Medicine and Molecular Imaging, 2021).

The conditions of this data set: n-octanol/PBS pH 7.4, individual replicates.

Several values for one entry are separate records, joined by “and”; a condition that tells them apart may be missing. Equal entries are not always repeated.

Turning to `CCCN(CCC)C(=O)Cc1c(-c2ccc([18F])cc2)nc2c(Cl)cc(Cl)cn12` [[^18F]BS224, 2-(-2-(4-[^18F]fluorophenyl)-6,8-dichloro-imidazo[1,2-a]pyridin-3-yl)-N,N-dipropylacetamide], the “Log D (single measurements 1-5)” value is 2.824 and 2.816.
